Laboratory results published in US20260201345A1.

Biological target: QF2 transcriptional activator (truncated QF lacking the middle domain, residues 206-650) (Neurospora crassa) (UniProt P11638)
Test: cell-based or functional assay

For “QS transcriptional repressor (from UniProt P11637 1-918)”, the repression of QF2-mediated GFP expression from P5xQUASf (flow cytometry), QS expressed from PADH1 was 74%, the repression of QF2-mediated GFP expression from P5xQUASf (flow cytometry), QS expressed from PHHF2 was 89% and the repression of QF2-mediated GFP expression from P5xQUASf (flow cytometry), QS expressed from PTEF1 was 98%.
